Results as given in ChEMBL document CHEMBL5257114, “Discovery of imidazo[1,2-b]pyridazine macrocyclic derivatives as novel ALK inhibitors capable of combating multiple resistant mutants” (Bioorg Med Chem Lett, 2023).

Protein sequences, listed by entry. Tags and fused reporters are not part of them. Lines headed by an entry give the natural chain unless they say otherwise; changes in a name come on top.
UniProt P07332: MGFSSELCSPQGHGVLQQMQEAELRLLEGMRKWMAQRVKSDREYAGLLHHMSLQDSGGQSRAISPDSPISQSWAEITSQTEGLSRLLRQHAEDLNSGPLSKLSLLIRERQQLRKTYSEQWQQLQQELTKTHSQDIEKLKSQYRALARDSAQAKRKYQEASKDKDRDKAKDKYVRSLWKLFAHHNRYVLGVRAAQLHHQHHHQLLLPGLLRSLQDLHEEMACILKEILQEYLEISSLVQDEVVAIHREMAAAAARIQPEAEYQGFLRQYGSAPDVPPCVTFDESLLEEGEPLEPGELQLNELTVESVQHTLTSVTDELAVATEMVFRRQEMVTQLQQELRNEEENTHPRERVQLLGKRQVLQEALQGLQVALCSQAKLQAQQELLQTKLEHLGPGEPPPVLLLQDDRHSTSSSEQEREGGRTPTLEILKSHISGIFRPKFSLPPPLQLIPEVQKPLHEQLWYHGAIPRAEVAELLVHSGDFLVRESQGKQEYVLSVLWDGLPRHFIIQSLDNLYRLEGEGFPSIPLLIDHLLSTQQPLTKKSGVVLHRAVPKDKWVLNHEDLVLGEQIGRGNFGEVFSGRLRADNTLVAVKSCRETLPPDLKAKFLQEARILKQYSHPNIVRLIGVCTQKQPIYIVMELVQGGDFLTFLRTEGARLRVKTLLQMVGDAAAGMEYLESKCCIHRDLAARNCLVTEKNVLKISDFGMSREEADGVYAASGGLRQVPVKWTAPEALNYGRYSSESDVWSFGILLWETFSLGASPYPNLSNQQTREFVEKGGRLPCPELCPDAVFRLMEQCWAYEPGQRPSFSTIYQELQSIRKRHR
UniProt P08922: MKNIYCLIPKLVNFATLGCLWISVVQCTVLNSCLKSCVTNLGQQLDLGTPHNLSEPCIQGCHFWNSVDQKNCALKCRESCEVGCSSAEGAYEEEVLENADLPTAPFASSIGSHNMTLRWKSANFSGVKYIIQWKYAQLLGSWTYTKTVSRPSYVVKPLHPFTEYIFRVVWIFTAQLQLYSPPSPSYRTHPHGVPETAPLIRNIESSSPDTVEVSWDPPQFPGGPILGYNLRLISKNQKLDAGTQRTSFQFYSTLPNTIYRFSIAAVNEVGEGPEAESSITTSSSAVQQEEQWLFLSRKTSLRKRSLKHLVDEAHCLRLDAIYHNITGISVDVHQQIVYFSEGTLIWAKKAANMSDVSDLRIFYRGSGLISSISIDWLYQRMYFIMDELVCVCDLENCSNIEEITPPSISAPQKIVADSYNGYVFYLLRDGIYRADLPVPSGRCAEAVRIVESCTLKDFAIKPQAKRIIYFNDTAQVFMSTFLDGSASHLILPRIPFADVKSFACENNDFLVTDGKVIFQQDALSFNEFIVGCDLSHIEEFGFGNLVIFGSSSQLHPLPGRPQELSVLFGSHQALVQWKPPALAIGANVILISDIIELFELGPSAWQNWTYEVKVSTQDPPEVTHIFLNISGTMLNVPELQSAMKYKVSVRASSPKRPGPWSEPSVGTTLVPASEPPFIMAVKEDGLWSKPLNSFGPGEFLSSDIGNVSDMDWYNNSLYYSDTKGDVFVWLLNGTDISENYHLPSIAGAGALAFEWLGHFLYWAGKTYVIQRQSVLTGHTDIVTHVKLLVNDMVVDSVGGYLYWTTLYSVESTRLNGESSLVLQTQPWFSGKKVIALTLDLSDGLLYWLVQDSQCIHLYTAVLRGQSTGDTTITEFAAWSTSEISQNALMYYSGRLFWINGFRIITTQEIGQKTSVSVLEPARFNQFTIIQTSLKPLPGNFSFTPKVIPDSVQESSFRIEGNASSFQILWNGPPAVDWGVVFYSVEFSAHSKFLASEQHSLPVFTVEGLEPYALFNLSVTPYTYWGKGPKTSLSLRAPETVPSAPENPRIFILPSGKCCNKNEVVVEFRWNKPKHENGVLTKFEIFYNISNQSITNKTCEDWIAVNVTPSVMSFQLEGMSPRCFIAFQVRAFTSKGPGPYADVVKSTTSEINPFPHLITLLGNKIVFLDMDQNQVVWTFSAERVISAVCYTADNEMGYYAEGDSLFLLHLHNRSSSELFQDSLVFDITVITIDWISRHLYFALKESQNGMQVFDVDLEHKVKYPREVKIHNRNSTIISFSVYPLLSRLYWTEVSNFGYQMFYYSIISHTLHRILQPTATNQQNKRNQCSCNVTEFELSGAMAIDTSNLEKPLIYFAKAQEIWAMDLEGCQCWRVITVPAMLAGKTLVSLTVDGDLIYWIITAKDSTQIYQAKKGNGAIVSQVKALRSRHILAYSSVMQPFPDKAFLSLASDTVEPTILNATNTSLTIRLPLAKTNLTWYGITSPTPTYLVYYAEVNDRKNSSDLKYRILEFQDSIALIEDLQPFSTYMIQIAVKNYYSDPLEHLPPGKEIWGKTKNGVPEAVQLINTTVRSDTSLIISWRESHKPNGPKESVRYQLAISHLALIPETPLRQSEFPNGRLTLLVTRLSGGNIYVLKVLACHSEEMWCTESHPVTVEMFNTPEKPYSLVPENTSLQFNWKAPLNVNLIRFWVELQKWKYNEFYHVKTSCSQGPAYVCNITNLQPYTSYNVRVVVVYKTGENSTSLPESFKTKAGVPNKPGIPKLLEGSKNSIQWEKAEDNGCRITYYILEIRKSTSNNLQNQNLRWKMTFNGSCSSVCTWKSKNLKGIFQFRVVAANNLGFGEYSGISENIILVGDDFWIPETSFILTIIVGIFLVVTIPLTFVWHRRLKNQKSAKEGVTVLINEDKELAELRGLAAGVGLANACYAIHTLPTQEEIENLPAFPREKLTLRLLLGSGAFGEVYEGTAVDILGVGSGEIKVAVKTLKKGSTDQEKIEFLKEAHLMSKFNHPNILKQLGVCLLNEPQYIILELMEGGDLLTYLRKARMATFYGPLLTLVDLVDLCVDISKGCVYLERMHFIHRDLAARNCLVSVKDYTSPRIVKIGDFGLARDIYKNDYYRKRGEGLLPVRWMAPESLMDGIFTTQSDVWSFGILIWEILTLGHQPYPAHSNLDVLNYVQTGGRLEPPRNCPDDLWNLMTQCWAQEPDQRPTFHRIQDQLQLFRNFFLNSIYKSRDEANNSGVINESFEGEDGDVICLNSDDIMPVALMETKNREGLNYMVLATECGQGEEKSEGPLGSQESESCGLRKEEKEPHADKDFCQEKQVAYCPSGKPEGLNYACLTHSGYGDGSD
UniProt Q12866: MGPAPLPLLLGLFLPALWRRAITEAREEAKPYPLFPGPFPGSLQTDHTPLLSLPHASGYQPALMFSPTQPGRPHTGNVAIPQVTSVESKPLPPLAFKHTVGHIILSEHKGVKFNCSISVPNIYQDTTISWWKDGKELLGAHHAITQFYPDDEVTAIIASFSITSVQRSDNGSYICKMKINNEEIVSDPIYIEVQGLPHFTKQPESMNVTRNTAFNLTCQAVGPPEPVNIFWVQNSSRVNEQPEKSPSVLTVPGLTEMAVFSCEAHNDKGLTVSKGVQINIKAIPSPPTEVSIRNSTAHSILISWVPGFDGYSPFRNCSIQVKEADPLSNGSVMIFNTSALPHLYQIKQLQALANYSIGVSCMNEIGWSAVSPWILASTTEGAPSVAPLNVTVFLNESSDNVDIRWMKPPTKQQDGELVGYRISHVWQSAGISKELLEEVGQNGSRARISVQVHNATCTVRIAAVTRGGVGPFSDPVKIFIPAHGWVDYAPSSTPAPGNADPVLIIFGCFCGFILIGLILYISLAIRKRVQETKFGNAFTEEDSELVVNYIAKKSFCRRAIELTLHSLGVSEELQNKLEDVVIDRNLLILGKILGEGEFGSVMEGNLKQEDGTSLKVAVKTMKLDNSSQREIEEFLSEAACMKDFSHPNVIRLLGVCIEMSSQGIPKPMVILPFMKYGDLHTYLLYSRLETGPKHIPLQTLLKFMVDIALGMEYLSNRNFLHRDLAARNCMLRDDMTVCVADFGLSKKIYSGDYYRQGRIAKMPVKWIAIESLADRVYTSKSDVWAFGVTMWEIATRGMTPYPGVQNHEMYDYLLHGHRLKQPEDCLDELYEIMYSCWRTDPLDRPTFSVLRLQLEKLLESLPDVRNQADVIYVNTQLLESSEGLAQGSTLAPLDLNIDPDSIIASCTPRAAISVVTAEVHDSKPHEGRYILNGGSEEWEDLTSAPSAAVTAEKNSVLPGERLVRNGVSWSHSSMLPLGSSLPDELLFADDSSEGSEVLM
UniProt P22455, whole entry, looked up: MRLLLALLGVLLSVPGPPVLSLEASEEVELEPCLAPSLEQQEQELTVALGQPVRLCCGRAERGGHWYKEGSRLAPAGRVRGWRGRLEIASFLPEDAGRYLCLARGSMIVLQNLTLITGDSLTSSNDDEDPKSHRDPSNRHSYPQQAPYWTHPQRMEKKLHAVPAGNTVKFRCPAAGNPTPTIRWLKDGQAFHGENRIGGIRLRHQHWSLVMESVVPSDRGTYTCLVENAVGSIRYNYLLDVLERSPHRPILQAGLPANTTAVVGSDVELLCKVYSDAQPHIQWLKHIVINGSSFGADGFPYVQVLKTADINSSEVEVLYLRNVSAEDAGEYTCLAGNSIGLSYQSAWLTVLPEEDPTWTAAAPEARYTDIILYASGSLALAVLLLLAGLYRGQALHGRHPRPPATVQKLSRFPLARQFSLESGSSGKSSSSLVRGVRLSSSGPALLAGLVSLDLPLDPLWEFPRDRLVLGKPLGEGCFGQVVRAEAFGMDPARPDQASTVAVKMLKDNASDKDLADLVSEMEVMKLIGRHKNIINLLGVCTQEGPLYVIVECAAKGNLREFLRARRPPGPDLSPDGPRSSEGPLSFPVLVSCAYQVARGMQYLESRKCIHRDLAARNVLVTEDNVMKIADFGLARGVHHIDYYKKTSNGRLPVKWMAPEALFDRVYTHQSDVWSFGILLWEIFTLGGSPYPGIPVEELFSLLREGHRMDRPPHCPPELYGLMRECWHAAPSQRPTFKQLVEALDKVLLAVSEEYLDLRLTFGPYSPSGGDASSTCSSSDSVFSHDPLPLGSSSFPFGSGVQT
UniProt P41240: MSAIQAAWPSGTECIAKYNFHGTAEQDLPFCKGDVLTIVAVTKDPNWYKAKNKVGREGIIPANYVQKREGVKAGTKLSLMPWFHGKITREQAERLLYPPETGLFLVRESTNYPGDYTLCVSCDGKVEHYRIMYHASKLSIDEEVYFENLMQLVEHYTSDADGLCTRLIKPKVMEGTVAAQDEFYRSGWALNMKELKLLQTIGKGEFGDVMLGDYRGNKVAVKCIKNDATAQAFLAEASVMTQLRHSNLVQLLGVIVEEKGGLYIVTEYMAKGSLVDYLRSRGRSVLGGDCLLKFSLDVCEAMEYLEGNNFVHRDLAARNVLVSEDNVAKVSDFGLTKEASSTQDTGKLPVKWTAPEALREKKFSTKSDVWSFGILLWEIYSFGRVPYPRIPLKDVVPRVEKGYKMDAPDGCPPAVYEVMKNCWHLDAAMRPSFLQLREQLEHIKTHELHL
UniProt P36888, whole entry: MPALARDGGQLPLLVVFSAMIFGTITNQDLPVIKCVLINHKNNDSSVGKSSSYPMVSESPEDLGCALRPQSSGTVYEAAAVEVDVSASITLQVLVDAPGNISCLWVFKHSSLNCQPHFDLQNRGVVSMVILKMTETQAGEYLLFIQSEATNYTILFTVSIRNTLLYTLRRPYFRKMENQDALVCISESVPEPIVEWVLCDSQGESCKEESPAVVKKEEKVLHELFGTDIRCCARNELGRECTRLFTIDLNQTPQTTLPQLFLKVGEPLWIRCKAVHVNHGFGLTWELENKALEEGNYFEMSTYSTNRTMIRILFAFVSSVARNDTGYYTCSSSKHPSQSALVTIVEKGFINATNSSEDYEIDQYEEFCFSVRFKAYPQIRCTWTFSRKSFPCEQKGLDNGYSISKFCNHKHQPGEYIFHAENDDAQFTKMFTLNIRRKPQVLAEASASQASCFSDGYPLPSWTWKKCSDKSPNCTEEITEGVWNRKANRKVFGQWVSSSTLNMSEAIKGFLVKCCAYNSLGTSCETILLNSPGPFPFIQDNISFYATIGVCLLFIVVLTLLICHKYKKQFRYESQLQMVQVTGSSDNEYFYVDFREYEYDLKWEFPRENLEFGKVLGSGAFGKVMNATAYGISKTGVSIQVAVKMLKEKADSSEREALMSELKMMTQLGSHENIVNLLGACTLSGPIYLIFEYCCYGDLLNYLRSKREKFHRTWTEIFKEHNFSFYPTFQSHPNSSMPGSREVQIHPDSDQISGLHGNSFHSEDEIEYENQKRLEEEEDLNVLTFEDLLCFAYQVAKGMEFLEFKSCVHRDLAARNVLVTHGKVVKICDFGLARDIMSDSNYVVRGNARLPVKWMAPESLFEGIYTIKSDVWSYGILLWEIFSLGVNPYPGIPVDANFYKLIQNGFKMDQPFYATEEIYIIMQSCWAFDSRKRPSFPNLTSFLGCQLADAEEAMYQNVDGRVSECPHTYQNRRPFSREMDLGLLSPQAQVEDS

Assays:
[1] = molecular target: Tyrosine-protein kinase ZAP-70 (Homo sapiens) (UniProt P43403); test: Inhibition of ZAP70 (unknown origin) at 1 uM relative to control
[2] = molecular target: Tyrosine-protein kinase SYK (Homo sapiens) (UniProt P43405); test: Inhibition of SYK (unknown origin) at 1 uM relative to control
[3] = molecular target: Vascular endothelial growth factor receptor 2 (Homo sapiens) (UniProt P35968); test: Inhibition of KDR (unknown origin) at 1 uM relative to control
[4] = molecular target: Ephrin type-A receptor 7 (Homo sapiens) (UniProt Q15375); test: Inhibition of EPHA7 (unknown origin) at 1 uM relative to control
[5] = molecular target: Platelet-derived growth factor receptor alpha (Homo sapiens) (UniProt P16234); test: Inhibition of PDGFRalpha (unknown origin) at 1 uM relative to control
[6] = molecular target: Tyrosine-protein kinase Fgr (Homo sapiens) (UniProt P09769); test: Inhibition of FGR (unknown origin) at 1 uM relative to control
[7] = molecular target: Tyrosine-protein kinase JAK1 (Homo sapiens) (UniProt P23458); test: Inhibition of JAK1 (unknown origin) at 1 uM relative to control
[8] = molecular target: Macrophage colony-stimulating factor 1 receptor (Homo sapiens) (UniProt P07333); test: Inhibition of CSF1R (unknown origin) at 1 uM relative to control
[9] = molecular target: Receptor tyrosine-protein kinase erbB-2 (Homo sapiens) (UniProt P04626); test: Inhibition of HER2 (unknown origin) at 1 uM relative to control
[10] = molecular target: Ephrin type-A receptor 3 (Homo sapiens) (UniProt P29320); test: Inhibition of EPHA3 (unknown origin) at 1 uM relative to control
[11] = molecular target: Tyrosine-protein kinase ITK/TSK (Homo sapiens) (UniProt Q08881); test: Inhibition of ITK (unknown origin) at 1 uM relative to control
[12] = molecular target: Vascular endothelial growth factor receptor 3 (Homo sapiens) (UniProt P35916); test: Inhibition of FLT4 (unknown origin) at 1 uM relative to control
[13] = molecular target: Tyrosine-protein kinase Fes/Fps (Homo sapiens) (UniProt P07332); test: Inhibition of FES (unknown origin) at 1 uM relative to control
[14] = molecular target: Tyrosine-protein kinase BTK (Homo sapiens) (UniProt Q06187); test: Inhibition of BTK (unknown origin) at 1 uM relative to control
[15] = molecular target: Proto-oncogene tyrosine-protein kinase ROS (Homo sapiens) (UniProt P08922); test: Inhibition of ROS (unknown origin) at 1 uM relative to control
[16] = molecular target: Angiopoietin-1 receptor (Homo sapiens) (UniProt Q02763); test: Inhibition of TIE2 (unknown origin) at 1 uM relative to control
[17] = molecular target: Proto-oncogene tyrosine-protein kinase receptor Ret (Homo sapiens) (UniProt P07949); test: Inhibition of RET (unknown origin) at 1 uM relative to control
[18] = molecular target: Tyrosine-protein kinase Yes (Homo sapiens) (UniProt P07947); test: Inhibition of YES (unknown origin) at 1 uM relative to control
[19] = molecular target: Tyrosine-protein kinase JAK3 (Homo sapiens) (UniProt P52333); test: Inhibition of JAK3 (unknown origin) at 1 uM relative to control
[20] = molecular target: Tyrosine-protein kinase receptor TYRO3 (Homo sapiens) (UniProt Q06418); test: Inhibition of TYRO3(unknown origin) at 1 uM relative to control
[21] = molecular target: Mast/stem cell growth factor receptor Kit (Homo sapiens) (UniProt P10721); test: Inhibition of KIT (unknown origin) at 1 uM relative to control
[22] = molecular target: Epidermal growth factor receptor (Homo sapiens) (UniProt P00533); test: Inhibition of EGFR (unknown origin) at 1 uM relative to control
[23] = molecular target: Tyrosine-protein kinase Mer (Homo sapiens) (UniProt Q12866); test: Inhibition of MER (unknown origin) at 1 uM relative to control
[24] = molecular target: Hepatocyte growth factor receptor (Homo sapiens) (UniProt P08581); test: Inhibition of MET (unknown origin) at 1 uM relative to control
[25] = molecular target: Macrophage-stimulating protein receptor (Homo sapiens) (UniProt Q04912); test: Inhibition of RON (unknown origin) at 1 uM relative to control
[26] = molecular target: Fibroblast growth factor receptor 4 (Homo sapiens) (UniProt P22455); test: Inhibition of FGFR4 (unknown origin) at 1 uM relative to control
[27] = molecular target: Receptor tyrosine-protein kinase erbB-4 (Homo sapiens) (UniProt Q15303); test: Inhibition of HER4 (unknown origin) at 1 uM relative to control
[28] = molecular target: Tyrosine-protein kinase ABL2 (Homo sapiens) (UniProt P42684); test: Inhibition of ABL2 (unknown origin) at 1 uM relative to control
[29] = molecular target: Tyrosine-protein kinase receptor UFO (Homo sapiens) (UniProt P30530); test: Inhibition of AXL (unknown origin) at 1 uM relative to control
[30] = molecular target: Fibroblast growth factor receptor 3 (Homo sapiens) (UniProt P22607); test: Inhibition of FGFR3 (unknown origin) at 1 uM relative to control
[31] = molecular target: Vascular endothelial growth factor receptor 1 (Homo sapiens) (UniProt P17948); test: Inhibition of FLT1 (unknown origin) at 1 uM relative to control
[32] = molecular target: Non-receptor tyrosine-protein kinase TYK2 (Homo sapiens) (UniProt P29597); test: Inhibition of TYK2 (unknown origin) at 1 uM relative to control
[33] = molecular target: Fibroblast growth factor receptor 2 (Homo sapiens) (UniProt P21802); test: Inhibition of FGFR2 (unknown origin) at 1 uM relative to control
[34] = molecular target: Tyrosine-protein kinase CSK (Homo sapiens) (UniProt P41240); test: Inhibition of CSK (unknown origin) at 1 uM relative to control
[35] = molecular target: Receptor-type tyrosine-protein kinase FLT3 (Homo sapiens) (UniProt P36888); test: Inhibition of FLT3 (unknown origin) at 1 uM relative to control
[36] = molecular target: Tyrosine-protein kinase JAK2 (Homo sapiens) (UniProt O60674); test: Inhibition of JAK2 (unknown origin) at 1 uM relative to control
[37] = molecular target: Focal adhesion kinase 1 (Homo sapiens) (UniProt Q05397); test: Inhibition of FAK (unknown origin) at 1 uM relative to control
[38] = molecular target: Proto-oncogene tyrosine-protein kinase Src (Homo sapiens) (UniProt P12931); test: Inhibition of SRC (unknown origin) at 1 uM relative to control
[39] = molecular target: Platelet-derived growth factor receptor beta (Homo sapiens) (UniProt P09619); test: Inhibition of PDGFRbeta (unknown origin) at 1 uM relative to control

`CC[C@H]1Nc2ccc3ncc(n3n2)C(=O)NC2(CC2)COc2ccc(F)cc21` gave an inhibition [1] of -0.88%, an inhibition [2] of -0.11% and an inhibition [3] of 5.15%. For the same compound, the inhibition [4] was 81.7%, the inhibition [5] was 37.6% and the inhibition [6] was 95.3%. It also gave an inhibition [7] of 86.2%, an inhibition [8] of 83.3% and an inhibition [9] of 10.4%. It also gave an inhibition [10] of 90.2%, an inhibition [11] of 28.1% and an inhibition [12] of 3.54%. The inhibition [13] was 83.1%, the inhibition [14] was 85.7% and the inhibition [15] was 100%. The inhibition [16] was 60.1%, the inhibition [17] was 82.3% and the inhibition [18] was 69.4%. For the same compound, the inhibition [19] was 79.6%, the inhibition [20] was 23.7% and the inhibition [21] was 9.04%. For the same compound, the inhibition [22] was 24.7%, the inhibition [23] was 79.8% and the inhibition [24] was 14.2%. The inhibition [25] was 2.5%, the inhibition [26] was 27.5% and the inhibition [27] was -3.6%. It also gave an inhibition [28] of 91.9%, an inhibition [29] of 86.7% and an inhibition [30] of 11.2%. The inhibition [31] was 9.56%, the inhibition [32] was 43.3% and the inhibition [33] was 76.7%. The inhibition [34] was 18.4%, the inhibition [35] was 50.8% and the inhibition [36] was 99.6%. It also gave an inhibition [37] of 101%, an inhibition [38] of 94.1% and an inhibition [39] of 24.2%.
